Data set [1] can be described thus: in vivo. The note with it: mouse, ip.
Data set [2] deals with guinea-pig isolated atria. The note with it: isoprenaline agonist, product at 10^-4 M.

In data set [1], `CC(CCc1ccccc1)NCC(O)c1ccc(O)c(C(N)=O)c1` (centres unmarked) [Labetalol, reference compound] returned a median lethal dose (LD50) of 300 mg/kg. Moreover, the “DR4 (dose ratio of agonist EC50 in the presence and in the absence of the product)” value in data set [2] was 12590.

As a reminder, the LD50 is the dose expected to kill half of the subjects tested. Lower therefore signals a more toxic substance.
